# Values quoted from earlier work as cited in patent US20160160213A1, “METHODS OF TREATING CANCER AND PREVENTING CANCER DRUG RESISTANCE” (Genentech, Inc., priority 2013, published 2016).
# Amino acid sequences for entries named in this document (tags omitted).
# UniProt Q15910, whole entry: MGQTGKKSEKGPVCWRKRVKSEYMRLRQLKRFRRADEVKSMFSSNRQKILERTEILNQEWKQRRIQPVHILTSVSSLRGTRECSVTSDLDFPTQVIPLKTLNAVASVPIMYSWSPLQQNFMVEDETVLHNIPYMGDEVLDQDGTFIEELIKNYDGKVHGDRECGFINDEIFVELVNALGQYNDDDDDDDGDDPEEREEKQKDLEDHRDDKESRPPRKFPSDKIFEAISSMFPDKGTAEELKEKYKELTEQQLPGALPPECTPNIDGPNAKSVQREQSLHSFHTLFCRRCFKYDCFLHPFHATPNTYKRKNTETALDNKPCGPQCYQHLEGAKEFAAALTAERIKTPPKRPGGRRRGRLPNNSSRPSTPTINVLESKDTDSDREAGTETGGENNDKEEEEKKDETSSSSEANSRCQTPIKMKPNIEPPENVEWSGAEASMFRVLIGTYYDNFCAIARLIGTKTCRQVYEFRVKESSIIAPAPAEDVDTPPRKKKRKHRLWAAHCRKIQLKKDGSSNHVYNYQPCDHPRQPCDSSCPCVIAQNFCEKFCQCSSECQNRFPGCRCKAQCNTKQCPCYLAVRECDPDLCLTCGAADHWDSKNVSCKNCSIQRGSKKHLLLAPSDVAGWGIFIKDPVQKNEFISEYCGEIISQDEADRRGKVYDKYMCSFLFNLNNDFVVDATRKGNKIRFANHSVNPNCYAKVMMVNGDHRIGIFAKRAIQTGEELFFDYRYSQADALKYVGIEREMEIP
# UniProt Q09028, whole entry partner: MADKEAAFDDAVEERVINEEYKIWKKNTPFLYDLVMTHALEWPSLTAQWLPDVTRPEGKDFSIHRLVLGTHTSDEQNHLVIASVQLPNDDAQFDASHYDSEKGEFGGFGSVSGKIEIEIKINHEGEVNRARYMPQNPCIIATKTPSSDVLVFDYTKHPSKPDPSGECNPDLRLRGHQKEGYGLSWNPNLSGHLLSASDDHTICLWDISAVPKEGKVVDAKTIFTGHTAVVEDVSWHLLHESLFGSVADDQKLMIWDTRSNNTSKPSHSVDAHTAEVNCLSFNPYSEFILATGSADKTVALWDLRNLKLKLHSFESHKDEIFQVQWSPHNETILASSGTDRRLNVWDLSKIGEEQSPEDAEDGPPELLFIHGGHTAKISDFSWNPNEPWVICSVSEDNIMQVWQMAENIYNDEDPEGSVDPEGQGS
# UniProt O75530, whole entry partner: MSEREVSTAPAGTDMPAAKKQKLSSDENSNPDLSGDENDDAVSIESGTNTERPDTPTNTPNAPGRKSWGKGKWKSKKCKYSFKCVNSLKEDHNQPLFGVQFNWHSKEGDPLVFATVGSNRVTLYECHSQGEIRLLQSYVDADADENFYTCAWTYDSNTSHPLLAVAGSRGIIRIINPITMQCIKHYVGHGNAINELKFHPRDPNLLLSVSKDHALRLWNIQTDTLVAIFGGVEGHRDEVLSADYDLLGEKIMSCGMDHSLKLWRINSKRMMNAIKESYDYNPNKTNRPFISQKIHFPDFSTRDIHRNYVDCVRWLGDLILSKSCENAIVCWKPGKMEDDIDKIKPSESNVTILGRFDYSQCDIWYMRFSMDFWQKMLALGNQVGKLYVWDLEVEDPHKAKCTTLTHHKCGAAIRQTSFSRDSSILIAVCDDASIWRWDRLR
# UniProt Q15022, whole entry partner: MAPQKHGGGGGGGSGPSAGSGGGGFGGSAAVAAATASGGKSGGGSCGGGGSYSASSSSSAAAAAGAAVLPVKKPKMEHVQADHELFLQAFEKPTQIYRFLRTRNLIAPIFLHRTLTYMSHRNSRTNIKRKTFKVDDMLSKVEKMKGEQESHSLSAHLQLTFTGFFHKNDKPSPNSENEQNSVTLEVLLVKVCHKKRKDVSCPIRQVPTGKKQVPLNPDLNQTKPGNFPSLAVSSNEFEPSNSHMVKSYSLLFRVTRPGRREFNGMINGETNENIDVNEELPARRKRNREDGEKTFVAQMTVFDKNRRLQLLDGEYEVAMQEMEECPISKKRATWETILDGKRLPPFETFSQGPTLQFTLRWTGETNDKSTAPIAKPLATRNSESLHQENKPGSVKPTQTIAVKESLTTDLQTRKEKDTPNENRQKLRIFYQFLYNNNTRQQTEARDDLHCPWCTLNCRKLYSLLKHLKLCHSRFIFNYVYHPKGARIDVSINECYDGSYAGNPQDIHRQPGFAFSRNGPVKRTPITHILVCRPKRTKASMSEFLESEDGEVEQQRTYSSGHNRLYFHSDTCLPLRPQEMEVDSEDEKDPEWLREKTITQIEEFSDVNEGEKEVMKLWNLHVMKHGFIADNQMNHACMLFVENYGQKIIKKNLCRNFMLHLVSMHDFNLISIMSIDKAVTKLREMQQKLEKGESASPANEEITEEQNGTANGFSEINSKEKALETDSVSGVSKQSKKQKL
# Biological target: EZH2 (Homo sapiens, UniProt Q15910)
# Details: read-out: EZH2 Ki^app; cited from earlier work
smiles,measurement,value
Cc1cc(C)c(CNC(=O)c2cc(-c3ccc(N4CCN(C)CC4)nc3)cc3c2cnn3C(C)C)c(=O)[nH]1,Ki,7.9 nM
